According to US20230084354A1, “NUTRACEUTICAL EXTRACTS OF HIPPOPHAE RHAMNOIDES AND TERMINALIA CHEBULA AND USES THEREOF” (Biomics, LLC, priority 2020, published 2023):

Tested on: Human peripheral blood mononuclear cell (PBMC) cultures
Test: CD69 and CD25 expression in human PBMC cultures, direct effects
Format: cell-based
Details: direct effect, 24 hours, vs untreated control; extract at the highest dose
Procedure: Next, the immune-modulating effects of the extract were tested. Human peripheral blood mononuclear cell (PBMC) cultures were used for this testing. A set of cultures were left untreated as negative control cultures for immune activation. Triplicate sets of cultures were treated with serial dilutions of the test product. The inflammatory bacterial lipopolysaccharide LPS from E. coli was used as a positive control for activation. The cultures were incubated for 24 hours, after which the cells and the culture supernatants were harvested and used to monitor the reactions in each culture. The cells were used for immunostaining and flow cytometry, specifically to evaluate the induction of two activation markers, CD69 and CD25, on NK cells, NKT cells, T lymphocytes, and monocytes/macrophages.

IL-2: control for immune activation in PBMC cultures
CD69 expression on NK cells: increase
